Ab-95 light chain CDR variants: yeast mating affinities

Values reported by Engelhart et al. 2022, doi:10.1038/s41597-022-01779-4 (FLAb copy).

Binding partner: SARS-CoV-2 spike HR2 peptide, sequence PDVDLGDISGINAS.

Parent: Ab-95, a human scFv built as VH, a 15-residue (Gly4Ser)3 linker, VL. Only the CDRs of the light chain vary.
VH: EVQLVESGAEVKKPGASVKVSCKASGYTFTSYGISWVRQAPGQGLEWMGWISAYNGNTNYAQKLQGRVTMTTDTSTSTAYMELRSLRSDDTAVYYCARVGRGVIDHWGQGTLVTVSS
VL: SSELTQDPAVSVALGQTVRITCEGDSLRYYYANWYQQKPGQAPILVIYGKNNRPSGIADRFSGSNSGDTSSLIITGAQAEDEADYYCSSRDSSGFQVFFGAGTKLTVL

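AAYL52 was designed without a model: most single CDR substitutions and a random sample of double and triple ones. The scFvs were displayed on barcoded MATa yeast, the peptide on MATalpha yeast. After mating in shaken culture at 30 °C for 16 h, diploids were selected and their barcode pairs sequenced. Each replicate has its own calibration line, from reference interactions of the BCL2 family. The assay was run in three technical replicates.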

Variants are written as CDR1, CDR2 and CDR3 of the light chain (limits as in the source). Parent: EGDSLRYYYAN, GKNNRPS, SSRDSSGFQVF. All variants listed here change N52 of the VL, counted from its first residue. The read-out is the apparent dissociation constant on a log10 scale (nM): the lower, the stronger. The mean shown is taken over the replicates in which the pair was detected. "nd" means that the variant was in the library but no mating with the target was seen in any replicate; the authors take this as a sign of poor binding, and no number exists. Nonspecific signal, from three strains lacking the peptide, appeared in 28% of pairings of library AAYL52, centred on 3.91 (5% of these signals below 2.90); values are not corrected for it.

* EGDSLRYFYAN | GKNWRPS | SSRDSSGFQVF: 3.09 (2 of 3 replicates)
* EGDSLRYYYAN | GINLRPS | SSRDSSGAQVF: 3.59 (3 of 3 replicates)
* EGDSLRYYYSN | GKNVRTS | SSRDSSGFQVF: 3.49 (3 of 3 replicates)
* EGDSLRGYYAN | GKNIRPS | SGRDSSGFQVF: 1.89 (3 of 3 replicates)
* LGDSLRYYYAN | GKNAFPS | SSRDSSGFQVF: 3.81 (1 of 3 replicates)
* EGDSLRWYYAN | GKNHRPS | SSRDSSGFIVF: 4.04 (2 of 3 replicates)
* EGDSLRYYYAN | HKNPRPS | SSRDSSGFQVE: 4.42 (2 of 3 replicates)
* EGDSLRYYYAN | GKNGRIS | SSRDSSGFQVF: 3.36 (3 of 3 replicates)
* HGDSLRYYYAN | GKNKRPS | SSRDSSGFNVF: 2.84 (3 of 3 replicates)
* EPDSLRYYYAN | GKNTRPS | SSRDSSGFQVQ: 2.95 (3 of 3 replicates)
* EGDSLRYYYAN | GNNCRPS | SSRDSSGMQVF: nd (0 of 3 replicates)
* EGDSLFYYYAN | GKNTRPS | SSRDSSGFQVF: 3.07 (2 of 3 replicates)
* EGDSLRYYYAN | GKNRRPS | SSRDSSGRQVT: 3.14 (2 of 3 replicates)
* EGDSIRYYYAN | GKNVRPS | SSDDSSGFQVF: 3.59 (2 of 3 replicates)
* EGDSLRYYYWN | GKNDRPS | SRRDSSGFQVF: 3.72 (1 of 3 replicates)
* EGDSLRYYYAN | GKNTRPS | SQRDSSGFQVG: nd (0 of 3 replicates)
* EGDSLRYYYIN | GKNGRPS | SVRDSSGFQVF: 3.91 (2 of 3 replicates)
* EGDSLRYYYAN | GKNKRPN | SSRDSSGFQVN: 3.82 (2 of 3 replicates)
* EGDSLRYYYAN | GKNTRPS | SSGISSGFQVF: 1.83 (3 of 3 replicates)
* EGDSLRYYGAN | GKNLRHS | SSRDSSGFQVF: 2.74 (3 of 3 replicates)
* EGDSLIYYSAN | GKNKRPS | SSRDSSGFQVF: 3.39 (2 of 3 replicates)
* EGDSLRYYYAI | GKNKRPS | SRRDSSGFQVF: 3.80 (3 of 3 replicates)
* EGDSLRYYYAN | GKNDGPS | SNRDSSGFQVF: 4.30 (1 of 3 replicates)
* EGDSLRYTYAN | GKNSRPS | SSRDSSGFQVF: 1.13 (3 of 3 replicates)
* EGDSLRYYWAN | GKNYRPS | SSRDSGGFQVF: 3.16 (3 of 3 replicates)
* EGDSLRYYYAN | GKFARPK | SSRDSSGFQVF: 4.52 (3 of 3 replicates)
* EGDSLRYIYAN | GKNARPS | SARDSSGFQVF: 1.91 (3 of 3 replicates)
* EGDSLRYYYAN | GKNARPS | SSRDSSGFGVF: 2.86 (2 of 3 replicates)
* EGDSSRYYYAN | GKNRRPS | SSRNSSGFQVF: 3.55 (3 of 3 replicates)
* EGDSYRYDYAN | GKNSRPS | SSRDSSGFQVF: 3.44 (2 of 3 replicates)
* EGDSTRYYYAS | GKNCRPS | SSRDSSGFQVF: nd (0 of 3 replicates)
* TGDSLRYYYAN | GKNGRPS | SSRDSSGFQAF: 2.31 (3 of 3 replicates)
* EGDSLRYYYAN | GKNTRPS | SSRDSSGFAVE: 2.59 (3 of 3 replicates)
* EGDSLRYYYAN | GKNYRPR | SSRDSSRFQVF: nd (0 of 3 replicates)
* EGDSLRYYYAH | QKNKRPS | SSRDSSGFQVF: 3.73 (3 of 3 replicates)
* EGDSLRYYYAN | GKNARPS | SSRDSSHFQCF: 4.24 (2 of 3 replicates)
* EGDSLRYYYAN | GKNYRPS | RSRDSSPFQVF: nd (0 of 3 replicates)

The last 6 entries again:

| CDR-L1 | CDR-L2 | CDR-L3 | log10 Kd (nM), mean | seen in |
|---|---|---|---|---|
| TGDSLRYYYAN | GKNGRPS | SSRDSSGFQAF | 2.31 | 3 of 3 |
| EGDSLRYYYAN | GKNTRPS | SSRDSSGFAVE | 2.59 | 3 of 3 |
| EGDSLRYYYAN | GKNYRPR | SSRDSSRFQVF | nd | 0 of 3 |
| EGDSLRYYYAH | QKNKRPS | SSRDSSGFQVF | 3.73 | 3 of 3 |
| EGDSLRYYYAN | GKNARPS | SSRDSSHFQCF | 4.24 | 2 of 3 |
| EGDSLRYYYAN | GKNYRPS | RSRDSSPFQVF | nd | 0 of 3 |

In this assay the parent's reference entry averaged 2.31; its copy inside this library read 2.25.